Test results published in PubChem BioAssay (NCI).
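Tested at 5 concentrations; 48 h exposure; 96-well plates; endpoints linearly interpolated, else capped at highest concentration. GI50 marks 50% less growth. TGI: total growth inhibition.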

What was measured:
Assay in all cases: NCI-60 cell line screen, 48 h
UACC-257 melanoma = tested on: UACC-257 melanoma
PC-3 prostate = tested on: PC-3 prostate
SK-OV-3 ovarian = tested on: SK-OV-3 ovarian
M14 melanoma = tested on: M14 melanoma
SK-MEL-5 melanoma = tested on: SK-MEL-5 melanoma
SK-MEL-2 melanoma = tested on: SK-MEL-2 melanoma
MDA-N = tested on: MDA-N
HL-60(TB) leukemia = tested on: HL-60(TB) leukemia
A549 NSCLC = tested on: A549 NSCLC
SR leukemia = tested on: SR leukemia
NCI-H23 lung = tested on: NCI-H23 lung
SF-268 CNS = tested on: SF-268 CNS
SNB-75 CNS = tested on: SNB-75 CNS
HOP-92 NSCLC = tested on: HOP-92 NSCLC
OVCAR-5 ovarian = tested on: OVCAR-5 ovarian
SF-539 CNS = tested on: SF-539 CNS
CAKI-1 renal = tested on: CAKI-1 renal
HS 578T breast = tested on: HS 578T breast
UACC-62 melanoma = tested on: UACC-62 melanoma
HT29 colon = tested on: HT29 colon
A498 renal = tested on: A498 renal
COLO 205 colon = tested on: COLO 205 colon
HCT-15 colon = tested on: HCT-15 colon
T-47D breast = tested on: T-47D breast
U251 CNS = tested on: U251 CNS
EKVX NSCLC = tested on: EKVX NSCLC
TK-10 renal = tested on: TK-10 renal
MDA-MB-231 breast = tested on: MDA-MB-231 breast
KM12 colon = tested on: KM12 colon
MCF7 breast = tested on: MCF7 breast
NCI-H460 lung = tested on: NCI-H460 lung
K-562 leukemia = tested on: K-562 leukemia
NCI-H322M lung = tested on: NCI-H322M lung
DU-145 prostate = tested on: DU-145 prostate
OVCAR-4 ovarian = tested on: OVCAR-4 ovarian
MOLT-4 leukemia = tested on: MOLT-4 leukemia
BT-549 breast = tested on: BT-549 breast
SNB-19 CNS = tested on: SNB-19 CNS
CCRF-CEM leukemia = tested on: CCRF-CEM leukemia
SF-295 CNS = tested on: SF-295 CNS
MALME-3M melanoma = tested on: MALME-3M melanoma
MDA-MB-435 = tested on: MDA-MB-435
LOX IMVI melanoma = tested on: LOX IMVI melanoma
OVCAR-8 ovarian = tested on: OVCAR-8 ovarian
IGROV1 ovarian = tested on: IGROV1 ovarian
UO-31 renal = tested on: UO-31 renal
RPMI-8226 leukemia = tested on: RPMI-8226 leukemia
786-0 renal = tested on: 786-0 renal
OVCAR-3 ovarian = tested on: OVCAR-3 ovarian
NCI-H522 lung = tested on: NCI-H522 lung
HCT-116 colon = tested on: HCT-116 colon
RXF 393 renal = tested on: RXF 393 renal
ACHN renal = tested on: ACHN renal
SN12C renal = tested on: SN12C renal
SK-MEL-28 melanoma = tested on: SK-MEL-28 melanoma
NCI/ADR-RES ovarian = tested on: NCI/ADR-RES ovarian
HOP-62 NSCLC = tested on: HOP-62 NSCLC
SW-620 colon = tested on: SW-620 colon

Compound `COc1ccc([N+](=O)[O-])c(C[N+](C)(CCCl)CCCl)c1` has a TGI (UACC-257 melanoma) greater than 100 µM, a TGI (PC-3 prostate) greater than 100 µM and a TGI (SK-OV-3 ovarian) greater than 100 µM. The TGI (M14 melanoma) was greater than 100 µM, the TGI (SK-MEL-5 melanoma) was greater than 100 µM and the TGI (SK-MEL-2 melanoma) was greater than 100 µM. For the same compound, the TGI (MDA-N) was greater than 100 µM, the TGI (HL-60(TB) leukemia) was greater than 100 µM and the TGI (A549 NSCLC) was greater than 100 µM. It also gave a GI50 (SR leukemia) of 5.71 µM, a TGI (SR leukemia) greater than 100 µM and a TGI (NCI-H23 lung) greater than 100 µM. It also gave a TGI (SF-268 CNS) greater than 100 µM, a TGI (SNB-75 CNS) greater than 100 µM and a TGI (HOP-92 NSCLC) greater than 100 µM. It also gave a TGI (OVCAR-5 ovarian) greater than 100 µM, a TGI (SF-539 CNS) greater than 100 µM and a GI50 (CAKI-1 renal) of 33.1 µM. It also gave a TGI (CAKI-1 renal) greater than 100 µM, a TGI (HS 578T breast) greater than 100 µM and a TGI (UACC-62 melanoma) greater than 100 µM. It also gave a TGI (HT29 colon) greater than 100 µM, a TGI (A498 renal) greater than 100 µM and a TGI (COLO 205 colon) greater than 100 µM. It also gave a TGI (HCT-15 colon) greater than 100 µM, a TGI (T-47D breast) greater than 100 µM and a TGI (U251 CNS) greater than 100 µM. It also gave a TGI (EKVX NSCLC) greater than 100 µM, a TGI (TK-10 renal) greater than 100 µM and a TGI (MDA-MB-231 breast) greater than 100 µM. For the same compound, the TGI (KM12 colon) was greater than 100 µM, the TGI (MCF7 breast) was greater than 100 µM and the TGI (NCI-H460 lung) was greater than 100 µM. For the same compound, the TGI (K-562 leukemia) was greater than 100 µM, the TGI (NCI-H322M lung) was greater than 100 µM and the TGI (DU-145 prostate) was greater than 100 µM. It also gave a TGI (OVCAR-4 ovarian) greater than 100 µM, a GI50 (MOLT-4 leukemia) of 69.1 µM and a TGI (MOLT-4 leukemia) greater than 100 µM. It also gave a TGI (BT-549 breast) greater than 100 µM, a TGI (SNB-19 CNS) greater than 100 µM and a TGI (CCRF-CEM leukemia) greater than 100 µM. It also gave a TGI (SF-295 CNS) greater than 100 µM, a TGI (MALME-3M melanoma) greater than 100 µM and a TGI (MDA-MB-435) greater than 100 µM. The TGI (LOX IMVI melanoma) was greater than 100 µM, the TGI (OVCAR-8 ovarian) was greater than 100 µM and the TGI (IGROV1 ovarian) was greater than 100 µM. The TGI (UO-31 renal) was greater than 100 µM, the TGI (RPMI-8226 leukemia) was greater than 100 µM and the TGI (786-0 renal) was greater than 100 µM. It also gave a TGI (OVCAR-3 ovarian) greater than 100 µM, a TGI (NCI-H522 lung) greater than 100 µM and a TGI (HCT-116 colon) greater than 100 µM. For the same compound, the TGI (RXF 393 renal) was greater than 100 µM, the TGI (ACHN renal) was greater than 100 µM and the TGI (SN12C renal) was greater than 100 µM. For the same compound, the TGI (SK-MEL-28 melanoma) was greater than 100 µM, the TGI (NCI/ADR-RES ovarian) was greater than 100 µM and the TGI (HOP-62 NSCLC) was greater than 100 µM. It also gave a TGI (SW-620 colon) greater than 100 µM.
